The record followed here is article PMC7723054.

This is one part of the list.

The chains are these.
T1: LIN28A (human?, UniProt Q9H9Z2 1-209)
T1 sequence: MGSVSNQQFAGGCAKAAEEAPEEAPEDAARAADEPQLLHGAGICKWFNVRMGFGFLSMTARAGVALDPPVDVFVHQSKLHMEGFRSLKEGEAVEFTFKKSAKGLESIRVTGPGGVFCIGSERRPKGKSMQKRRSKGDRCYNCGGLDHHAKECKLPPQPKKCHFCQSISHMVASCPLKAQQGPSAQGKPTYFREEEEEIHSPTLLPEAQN

T2: CIRBP (Homo sapiens, UniProt Q14011 1-172)
T2 sequence: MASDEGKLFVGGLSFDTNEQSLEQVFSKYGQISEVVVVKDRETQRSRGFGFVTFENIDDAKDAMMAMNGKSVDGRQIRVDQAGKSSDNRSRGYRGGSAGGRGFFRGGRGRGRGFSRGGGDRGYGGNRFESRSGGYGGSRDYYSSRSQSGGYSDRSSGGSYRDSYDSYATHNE

T3: DHX36 (Homo sapiens, UniProt Q9H2U1 1-1008)
T3 sequence: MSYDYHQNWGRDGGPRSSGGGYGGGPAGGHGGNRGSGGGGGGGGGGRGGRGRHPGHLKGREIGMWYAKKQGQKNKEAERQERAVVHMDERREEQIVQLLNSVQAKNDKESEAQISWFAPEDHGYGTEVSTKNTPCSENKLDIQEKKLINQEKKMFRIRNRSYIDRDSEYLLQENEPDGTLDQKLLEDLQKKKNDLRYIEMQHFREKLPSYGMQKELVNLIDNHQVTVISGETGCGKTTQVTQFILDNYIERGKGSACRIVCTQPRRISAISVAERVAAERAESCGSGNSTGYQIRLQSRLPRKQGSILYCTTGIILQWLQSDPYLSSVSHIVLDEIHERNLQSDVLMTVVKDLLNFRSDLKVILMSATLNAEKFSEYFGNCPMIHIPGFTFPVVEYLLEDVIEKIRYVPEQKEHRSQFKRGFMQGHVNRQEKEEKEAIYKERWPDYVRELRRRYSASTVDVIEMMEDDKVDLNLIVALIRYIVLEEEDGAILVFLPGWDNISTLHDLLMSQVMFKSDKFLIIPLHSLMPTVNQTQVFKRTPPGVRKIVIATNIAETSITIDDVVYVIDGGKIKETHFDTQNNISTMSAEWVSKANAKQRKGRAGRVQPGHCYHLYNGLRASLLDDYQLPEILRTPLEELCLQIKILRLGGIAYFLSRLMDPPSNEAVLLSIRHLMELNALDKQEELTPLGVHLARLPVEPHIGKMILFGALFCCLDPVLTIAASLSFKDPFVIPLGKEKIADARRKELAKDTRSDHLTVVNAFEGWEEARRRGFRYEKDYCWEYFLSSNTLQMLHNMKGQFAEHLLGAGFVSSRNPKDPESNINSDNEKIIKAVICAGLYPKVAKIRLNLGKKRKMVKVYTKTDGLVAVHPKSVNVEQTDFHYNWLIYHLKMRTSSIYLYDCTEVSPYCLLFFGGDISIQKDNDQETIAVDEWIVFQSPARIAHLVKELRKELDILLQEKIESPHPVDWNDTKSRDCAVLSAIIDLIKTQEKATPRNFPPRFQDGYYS

B1: hsa-mir-6734 (structured_RNA)
RNA: GGGAAACCUGCAUAUGUGGUCGCUCAUCGGUGUACGAAGUUUCAGCAGAAGCCCAGGUUCUGAAUCCCCUGCUGAAGCUUCGUGCAC
B2: hsa-mir-5703 (structured_RNA)
RNA: GGGAAGGAUCGCCAUGAGAUUUGCAUUCGGUGUACGAAGUUUCAGCUCCCCUCAGGAGCUGAAGCUUCGUGCAC
B3: hsa-mir-144 (structured_RNA)
RNA: GGGAAAACGGGAUCCGACAAUGCCCAAGGGUGUACGAAGUUUCAGCUGUAAGUUUGCGAUGAGACACUACAGCUGAAGCUUCGUGCAC
B4: hsa-mir-8072 (structured_RNA)
RNA: GGGAAGGGGAGAAAGCCUUCUAAUCGAUGGUGUACGAAGUUUCAGCGCAGAGCAGGACGCCGCUGCUGCGCUGAAGCUUCGUGCAC
B5: hsa-mir-4330 (structured_RNA)
RNA: GGGAACAUGUAACCCGCCAAGACCUUAGGGUGUACGAAGUUUCAGCGAGGAUGCAGGAGAGGAAGGGGGCUUCUUUUUGACGCCUACUUCAUCAGCUGCUCCUCGCUGAAGCUUCGUGCAC
B6: hsa-mir-5694 (structured_RNA)
RNA: GGGACACGUGGGGUCCCCUGAUUUCAAAGGUGUACGAAGUUUCAGCUCAGCCCCAUAUGUAUCUGAAGGCUGAGCUGAAGCUUCGUGCAC
B7: hsa-mir-4739 (structured_RNA)
RNA: GGGACCGUCUAUAGCGCCUACGAUGCAUGGUGUACGAAGUUUCAGCCCCUUGUCUUCCCAGAGGCUGAAGCUUCGUGCAC
B8: hsa-mir-29b-2 (structured_RNA)
RNA: GGGAACUUUCUGGCCCGUGGAUACACUCGGUGUACGAAGUUUCAGCCUUAGAUUUUUCCAUCUUUGUAUCUAGGCUGAAGCUUCGUGCAC
B9: hsa-mir-4718 (structured_RNA)
RNA: GGGAAGGGACAGCAUACUACCGUUGUUCGGUGUACGAAGUUUCAGCGCACCUGUUUGUGACGCUGAAGCUUCGUGCAC
B10: hsa-mir-8079 (structured_RNA)
RNA: GGGAACUAUGCCCGAGAGACCUGUACCGGGUGUACGAAGUUUCAGCUGGCUGUAGGGCAGCAGUCAGCUGAAGCUUCGUGCAC
B11: hsa-mir-154 (structured_RNA)
RNA: GGGAAACCAGAUUGCGGAUCAGAUACAAGGUGUACGAAGUUUCAGCCCUUCGCUUUAUUUGUGACGAAUCGCUGAAGCUUCGUGCAC
B12: PARIS_ID43 (structured_RNA)
RNA: GGGAGAGCUUGAUGAGACUUGAGUACUAGGUGUACGAAGUUUCAGCCUGGAUCUAUUUCUGGAAAUUUUAGGCUCCAGGCUGAAGCUUCGUGCAC
B13: hsa-mir-631 (structured_RNA)
RNA: GGGACUCAGUAGCGUCUGAUAGGAGUCAGGUGUACGAAGUUUCAGCCAGCUACACAAGCUGGCUGAAGCUUCGUGCAC
B14: hsa-mir-449b (structured_RNA)
RNA: GGGAACGCGGGUACAUUACUCCCUGAUAGGUGUACGAAGUUUCAGCUGGCUGCUUGGGUCAAGUCAGCAGCCAGCUGAAGCUUCGUGCAC
B15: hsa-mir-6129 (structured_RNA)
RNA: GGGACGGUCGACUCGGCAUGCUUCUACAGGUGUACGAAGUUUCAGCUAUAGGAAGGAAAUCUUAUGCUGAAGCUUCGUGCAC
B16: hsa-mir-4746 (structured_RNA)
RNA: GGGACCACUCUCGUUCAACGCGAAGUCCGGUGUACGAAGUUUCAGCCAGAGGCAUCGGGUCAGGCUGAAGCUUCGUGCAC
B17: hsa-mir-8086 (structured_RNA)
RNA: GGGAAGGUAUCGUAAGGAUCAGUCGAACGGUGUACGAAGUUUCAGCUGGUUAGCUUUUUUUUUUUUUUGAGAUGGAGUCUGGCUCGCUGAAGCUUCGUGCAC
B18: hsa-mir-579 (structured_RNA)
RNA: GGGAGCCCCGACAUAGAAUAGCCUUGAGGGUGUACGAAGUUUCAGCGACGAUUUGAAUUAAUAAAUUCGCUGAAGCUUCGUGCAC
B19: hsa-mir-1322 (structured_RNA)
RNA: GGGAAUAGAUGUUGGGGACGGUUUCGAGGGUGUACGAAGUUUCAGCAGAAACCUACUUAUUACAUAGUUUACAUAAGAAGCGUGAUGCUGAAGCUUCGUGCAC
B20: hsa-mir-3663 (structured_RNA)
RNA: GGGAAAGAAAAUGGCUGCUGCUAUGGCAGGUGUACGAAGUUUCAGCCUCGGGUGGAUAAGUCUGAUCUGAGGCUGAAGCUUCGUGCAC
B21: hsa-mir-4682 (structured_RNA)
RNA: GGGAUUAGGCCACGACAUUCUAGCUUUGGGUGUACGAAGUUUCAGCGUCUGUCACUGGGGAAGUCGCUGAAGCUUCGUGCAC
B22: hsa-mir-3163 (structured_RNA)
RNA: GGGACAGAACAAAGUGCCACUAGAGUAAGGUGUACGAAGUUUCAGCAGACCUUCCUUCCUUGUCUGCUGAAGCUUCGUGCAC
B23: hsa-mir-3170 (structured_RNA)
RNA: GGGAACAUAGACAAAGCGCAGAAAGCCUGGUGUACGAAGUUUCAGCCAGUGUUAGCUCCAGAAGCAUUGGCUGAAGCUUCGUGCAC
B24: hsa-mir-935 (structured_RNA)
RNA: GGGAAGCUAAAUCCCUGCCGACGACAUGGGUGUACGAAGUUUCAGCCUCGGCCAUCCUCCGUCUGCCCAGGCUGAAGCUUCGUGCAC
B25: hsa-mir-6838 (structured_RNA)
RNA: GGGAAACGAUGUGGAGGGACAGCCUUGAGGUGUACGAAGUUUCAGCACUCCUAGGUCACGGAAGUGCUGAAGCUUCGUGCAC
B26: hsa-mir-4484 (structured_RNA)
RNA: GGGAAGCAAAUGUAGGCACGUGAGGACCGGUGUACGAAGUUUCAGCUUUUUUUCCAAUGAAAAUAACGAAACCUGUUAUUUCCCAUUGAGGGGGAAAAAGCUGAAGCUUCGUGCAC

The first test has as its target T1, LIN28A. The experiment in a line: FOREST: bead pull-down of RNA structure library v1, barcode microarray; U1A/LIN28A: 20 mM HEPES pH 7.5, 80 mM KCl, 20 mM NaCl, 10% glycerol, 2 mM DTT, 0.1 ug/uL BSA, 4 C; BG4/CIRBP/DHX36: 10 mM Tris-HCl pH 7.5, 100 mM KCl (or LiCl),; high values mean tight binding.
Take B1: the binding signal came to 0.0441 z-score.
B2 gave a binding signal of 0.0955 z-score.
Still for that read-out and setting: the result for B3 reads 0.104 z-score; that for B4, 0.0803 z-score.
On the same count and under the same terms, then B5, with 0.0903 z-score; and B6, with 0.0874 z-score; and B7, with 0.0756 z-score.
Still for that read-out and setting: then B8, with 0.0548 z-score.
The molecule B9 came in with a binding signal of 0.0647 z-score.
Still for that read-out and setting: then B10, with 0.0485 z-score.
The same measure, in the same setting: the result for B11 reads 0.109 z-score; that for B12, 0.102 z-score.
On to B13, for which the binding signal was determined as 0.0977 z-score.
Turning to B14, the binding signal was 0.0758 z-score.
B15 gave a binding signal of 0.0885 z-score.
Same read-out and setting: the result for B16 reads 0.11 z-score.
B17 returned a binding signal of 0.102 z-score.
Still for that read-out and setting: then B18, with 0.0454 z-score; and B19, with 0.076 z-score; and B20, with 0.109 z-score.
The same measure, in the same setting: the result for B21 reads 0.112 z-score; that for B22, 0.118 z-score.
Still for that read-out and setting: the result for B23 reads 0.114 z-score; that for B24, 0.0894 z-score.
B25 had a binding signal of 0.115 z-score.
Still for that read-out and setting: the result for B26 reads 0.0519 z-score.

The target of another test is T2, CIRBP. The test is described as above.
B1 returned a binding signal of 0.05 z-score.
Molecule B2 came in with a binding signal of 0.606 z-score.
For the molecule B3, the binding signal was -0.559 z-score.
The molecule B4 came in with a binding signal of -1.29 z-score.
B5 gave a binding signal of 0.997 z-score.
The same measure, in the same setting: the result for B6 reads -1.92 z-score.
On to B7, for which the binding signal is -0.0505 z-score.
As to B8, the binding signal amounted to 0.473 z-score.
The molecule B9 had a binding signal of -0.397 z-score.
The molecule B10 gave a binding signal of 0.104 z-score.
B11: the binding signal came out at 0.0352 z-score.
In turn, B12 showed a binding signal of -0.966 z-score.
The same measure, in the same setting: then B13, with 0.12 z-score.
Still for that read-out and setting: the result for B14 reads -0.338 z-score.
On the same count and under the same terms, the result for B15 reads 0.486 z-score; that for B16, -0.271 z-score; that for B17, -0.408 z-score.
Take B18: the binding signal was -0.0194 z-score.
Still for that read-out and setting: then B19, with -0.437 z-score.
B20 registered a binding signal of 1.63 z-score.
Still for that read-out and setting: the result for B21 reads -0.703 z-score; that for B22, -0.333 z-score; that for B23, -0.304 z-score.
Take B24: the binding signal stood at 0.0532 z-score.
Still for that read-out and setting: the result for B25 reads 1.33 z-score.
Turning to B26, the binding signal came to 0.118 z-score.

For another test, the target named is T3, DHX36. The description is as above.
On to B1, for which the binding signal was found to be 0.417 z-score.
On the same count and under the same terms, the result for B2 reads -0.348 z-score; that for B3, -1.14 z-score.
As for B4, the binding signal is -1.13 z-score.
Molecule B5 yielded a binding signal of 1.61 z-score.
Consider B6, for which the binding signal was -1.17 z-score.
On the same count and under the same terms, the result for B7 reads -0.129 z-score; that for B8, -0.188 z-score; that for B9, -0.108 z-score.
Same read-out and setting: the result for B10 reads 0.693 z-score; that for B11, -0.494 z-score.
Same read-out and setting: then B12, with 0.201 z-score; and B13, with -0.495 z-score; and B14, with 0.387 z-score.
With B15, the binding signal is -0.412 z-score.
Same read-out and setting: then B16, with 0.0261 z-score; and B17, with -0.257 z-score.
The same measure, in the same setting: then B18, with -0.666 z-score; and B19, with -0.996 z-score.
The same measure, in the same setting: the result for B20 reads 0.381 z-score; that for B21, 0.105 z-score; that for B22, -1.82 z-score.
B23 registered a binding signal of -0.4 z-score.
On the same count and under the same terms, then B24, with -0.748 z-score; and B25, with 0.204 z-score.
In the case of B26, the binding signal was -0.00798 z-score.
